Rows were chosen to be rich in hits. Some 1.7% of all compounds tested hit in one or more screens of this group.
CDK5 p35 inh: inhibitors of human CDK5/p35 kinase; Q00535+Q15078; Recombinant CDK5/p35, ADP-Glo luminescence, 60 min; inhibition, % at 10 µM; actives 0.01% (n = 330,000);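 active = highest replicate inhibition of at least 50% and at least 75% of replicates reaching 50%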;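 note: plate controls were DMSO neutral control for no effect and GW8510 at 10 µM for full effect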
DYRK1A inh: Dyrk1A (rat) kinase inhibition. Q63470. ADP-Glo luminescence, NFATc1 peptide. inhibition, % at 12.5 µM. actives 0.43% (n = 310,000); in the data active = inhibition above about 50%;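 note: plate controls were vehicle with enzyme for no effect and no enzyme for full effect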
CAL PDZ FP-1: blocks peptide binding to human CAL PDZ domain | Q9HD26 | purified CAL PDZ, TMR-peptide fluorescence polarization, 1 h | inhibition, % at 20 µM | actives 0.02% (n = 330,000) | AID 504414;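 active = highest replicate inhibition of at least 40%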;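 note: plate controls were DMSO neutral control wells for no effect and unlabeled competitor peptide control wells for full effect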
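Material: tagged CAL PDZ domain; buffer or medium: 25 mM sodium phosphate pH 7.4, 150 mM NaCl, TCEP, IgG, Thesit; compound dosing: single point, 20 µM; schedule: 1 h incubation at room temperature before polarization reading; measured by: FP readout, S and P plane fluorescence; read-out basis: percent inhibition from loss of millipolarization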
CAL PDZ FP-2: CAL PDZ (human) peptide binding inhibition | Q9HD26 | purified CAL PDZ, TMR-peptide fluorescence polarization, 1 h | inhibition, % at 24.9 µM | actives 0.92% (n = 300,000);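 active = mean inhibition of at least 30% with at least half of replicates also reaching 30%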;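 note: 0% = DMSO neutral control and 100% = excess unlabeled competitor peptide PRC23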
dFosB act: enhances mouse delta FosB homodimer DNA binding; actives 0.99% (n = 340,000); purified delta FosB, TAMRA-CDK5 oligo fluorescence polarization; percent of positive-control signal above neutral wells; activation, % at 25 µM; P13346;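 active = mean activation above about 17%, with every replicate also reaching it, limit read from the data, passing the limit was not always enough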
Yeast UUG start-1: modulators of yeast start codon fidelity, primary screen, whole organism, S. cerevisiae, single point, plate reader | activity score, % at 18.7 µM | 350,000 tested, 0.13% active | S. cerevisiae UUG-firefly luciferase reporter, luminescence/redox ratio;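 active means replicate mean at a twofold rise or more, about +100% in these data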;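 further: firefly luciferase made from a UUG start codon reports start codon fidelity; reporter light over untreated wells divided by growth signal over untreated wells; some hits fall short of that in this replicate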
Yeast UUG start-2: modulators of start codon recognition fidelity in yeast | activation, % at 38 µM | shares compounds with Yeast UUG start-1 | AID 652061 | S. cerevisiae UUG-start firefly luciferase, luminescence, 4 h; 100% means double the DMSO signal | 540 tested, under 10 active;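 active = signal increase whose fitted curve reaches an absolute level of 40 at a concentration under 10 µM; inactive = activity opposite to the expected increase, or the rest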
Active calls of the source: *; i = inactive; · = no result given.

The opening 3 entries as a preview:
nr	CDK5 p35 inh	DYRK1A inh	CAL PDZ FP-1	CAL PDZ FP-2	dFosB act	Yeast UUG start-1	Yeast UUG start-2	molecule
1	-1	4	-2	-1	-6	-13	7	CCC(=O)c1cn(CC(=O)NCC2CCCO2)c2ccccc12 (configuration not stated)
2	-2	3	-1	-39	0	-23	-5	O=C(Cn1cc(C(=O)c2cccs2)c2ccccc21)NCC1CCCO1 (configuration not stated)
3	0	8	0	-1	11	-17	-2	CC1CCN(C(=O)Cn2cc(C(=O)C3CC3)c3ccccc32)CC1

Results, previewed entries included:
nr	CDK5 p35 inh	DYRK1A inh	CAL PDZ FP-1	CAL PDZ FP-2	dFosB act	Yeast UUG start-1	Yeast UUG start-2	molecule
1	-1	4	-2	-1	-6	-13	7	CCC(=O)c1cn(CC(=O)NCC2CCCO2)c2ccccc12 (configuration not stated)
2	-2	3	-1	-39	0	-23	-5	O=C(Cn1cc(C(=O)c2cccs2)c2ccccc21)NCC1CCCO1 (configuration not stated)
3	0	8	0	-1	11	-17	-2	CC1CCN(C(=O)Cn2cc(C(=O)C3CC3)c3ccccc32)CC1
4	0	2	1	-4	1	-14	·	Cc1cc(SCC(=O)NC2CC2)nc2ccccc12
5	·	·	·	·	·	17	·	CCC(=O)N(C)C[C@@H]1Oc2cc(-c3ccccc3F)ccc2S(=O)(=O)N([C@@H](C)CO)C[C@@H]1C
6	-1	0	0	5	-1	-16	-13	O=C(Cn1cc(C(=O)C2CCCCC2)c2ccccc21)NCC1CCCO1 (configuration not stated)
7	1	6	-1	4	-3	·	·	CCN(CC)C(=O)C(=O)c1cn(CC(=O)NCC2CCCO2)c2ccccc12 (configuration not stated)
8	1	-1	0	-3	-6	105*	9	CCC1=C(OC(=O)c2ccccc2)C(C)(C)C(c2ccccc2)OC1=O (configuration not stated)
9	2	-4	-1	-4	-1	·	·	O=C(COC(=O)Cc1ccc(Cl)cc1)Nc1ccccc1F
10	0	-2	-2	2	-7	460*	-5	O=C(COC(=O)Cc1ccc(Cl)cc1)Nc1c(F)cccc1F
11	·	·	·	·	·	21	·	O=C(Cc1ccccc1)N1C[C@@H]2[C@H](c3ccccc31)[C@H](CO)N2C(=O)Cc1ccccc1
12	-2	1	-2	1	6	361*	-8	CCCCCn1c(SCCN2CCOCC2)nc2c1c(=O)[nH]c(=O)n2C
13	-4	-5	-1	-3	-6	-15	·	CCCCCCn1c(SCCN2CCOCC2)nc2c1c(=O)[nH]c(=O)n2C
14	·	·	·	·	·	5	·	CC(C)N(C[C@H]1[C@H](c2ccccc2)[C@H](CO)N1S(C)(=O)=O)C(=O)CN(C)C
15	·	·	·	·	·	164*	i	CC(C)N(C[C@H]1[C@H](c2ccccc2)[C@@H](CO)N1S(C)(=O)=O)C(=O)CN(C)C
16	·	·	·	·	·	7	·	C[C@H]1CN([C@@H](C)CO)C(=O)c2cc(NC(=O)NC3CCCCC3)ccc2O[C@H]1CN(C)C(=O)Nc1ccc2c(c1)OCO2
17	·	·	·	·	·	162*	i	O=C(N[C@H]1CC[C@H](CCn2cc(C3(O)CCCC3)nn2)O[C@H]1CO)C1CCCCC1
18	·	·	·	·	·	7	·	O=C(N[C@@H]1CC[C@H](CCn2cc(C3(O)CCCC3)nn2)O[C@@H]1CO)C1CCCCC1
19	·	·	·	·	·	158*	i	O=C(NCC[C@H]1CC[C@H](NC(=O)C2CCCCC2)[C@H](CO)O1)c1cnccn1
20	·	·	·	·	·	178*	i	O=S(=O)(N[C@H]1CC[C@@H](CCn2cc(C3(O)CCCC3)nn2)O[C@@H]1CO)c1ccc(F)cc1
21	·	·	·	·	·	3	·	C[C@H](CO)N1C[C@H](C)[C@@H](CN(C)Cc2ccc(C(F)(F)F)cc2)Oc2c(NC(=O)C3CCOCC3)cccc2C1=O
22	-1	8	-12	-5	-46	8	·	CC1CCN(CCCNC(=O)c2cc3c(Cl)nc4ccccc4c3s2)CC1
23	-1	48	-8	-1	-60	486*	5	O=C(NCCCN1CCCC1)c1cc2c(Cl)nc3ccccc3c2s1
24	·	·	·	·	·	-7	·	C[C@H]1CCCCO[C@H](CN(C)C(=O)Nc2ccccc2)[C@@H](C)CN([C@@H](C)CO)C(=O)c2cc(NS(=O)(=O)c3ccc(F)cc3)ccc2O1
25	·	·	·	·	·	-3	·	C[C@H]1CN([C@@H](C)CO)C(=O)c2cc(N(C)C)ccc2O[C@@H]1CN(C)S(=O)(=O)c1cn(C)cn1
26	-2	-1	-1	7	-5	-18	·	C=CCN(c1ccccc1)S(=O)(=O)c1cccc(C(=O)NNC(=O)c2ccccc2O)c1
27	3	-1	-1	1	-5	519*	0	C=CCN(c1ccccc1)S(=O)(=O)c1cccc(C(=O)O)c1
28	-1	-1	-2	1	-2	406*	1	CC(C)c1ccc(CCNC(=O)c2ccc([N+](=O)[O-])cc2)cc1
29	·	·	·	·	·	12	·	C[C@H](CO)N1C[C@H](C)[C@@H](CN(C)Cc2ccc(Cl)c(Cl)c2)OCCCC[C@H](C)Oc2ccc(NC(=O)Nc3ccccc3)cc2C1=O
30	·	·	·	·	·	-1	·	CCC(=O)N1[C@H](CO)[C@H](c2ccc(-c3cccc(F)c3)cc2)[C@@H]1CN(C)C(C)=O

Overlap with the part before: 2 entries, then new ones.
nr	CDK5 p35 inh	DYRK1A inh	CAL PDZ FP-1	CAL PDZ FP-2	dFosB act	Yeast UUG start-1	Yeast UUG start-2	molecule
29	·	·	·	·	·	12	·	C[C@H](CO)N1C[C@H](C)[C@@H](CN(C)Cc2ccc(Cl)c(Cl)c2)OCCCC[C@H](C)Oc2ccc(NC(=O)Nc3ccccc3)cc2C1=O
30	·	·	·	·	·	-1	·	CCC(=O)N1[C@H](CO)[C@H](c2ccc(-c3cccc(F)c3)cc2)[C@@H]1CN(C)C(C)=O
31	·	·	·	·	·	47*	i	C[C@@H]1CN([C@@H](C)CO)C(=O)Cc2cc(NC(=O)C3CCCCC3)ccc2O[C@H]1CN(C)C(=O)NC1CCCCC1
32	·	·	·	·	·	-6	·	O=C(C[C@@H]1CC[C@H](NC(=O)c2cnccn2)[C@@H](CO)O1)NCc1ccccc1F
33	·	·	·	·	·	111*	i	C[C@H]1CN([C@@H](C)CO)S(=O)(=O)c2ccc(-c3cccc(C(=O)N(C)C)c3)cc2O[C@@H]1CN(C)C(=O)Nc1ccc(F)cc1
34	·	·	·	·	·	-7	·	COc1cccc(-c2ccc3c(c2)O[C@H](CN(C)Cc2cncnc2)[C@@H](C)CN([C@@H](C)CO)S3(=O)=O)c1
35	·	·	·	·	·	13	·	CC(=O)N(C)C[C@@H]1Oc2cc(-c3cccc(C#N)c3)ccc2S(=O)(=O)N([C@@H](C)CO)C[C@H]1C
36	·	·	·	·	·	63*	i	CC(=O)N(C)C[C@@H]1Oc2cc(Br)ccc2S(=O)(=O)N([C@@H](C)CO)C[C@@H]1C
37	·	·	·	·	·	166*	i	COc1cccc(-c2ccc3c(c2)O[C@@H](CN(C)Cc2ccncc2)[C@@H](C)CN([C@H](C)CO)S3(=O)=O)c1
38	·	·	·	·	·	66*	i	CC(=O)N(C)C[C@@H]1Oc2cc(-c3cccc(C#N)c3)ccc2S(=O)(=O)N([C@H](C)CO)C[C@H]1C
39	·	·	·	·	·	0	·	C[C@H]1CN([C@@H](C)CO)S(=O)(=O)c2ccc(-c3cccc(C(=O)N(C)C)c3)cc2O[C@H]1CN(C)C(=O)Nc1ccc(F)cc1
40	·	·	·	·	·	-4	·	COCC(=O)N1C[C@H]2[C@@H](c3ccccc31)[C@H](CO)N2C(=O)C1CCCC1
41	·	·	·	·	·	-7	·	C[C@@H]1CCCCO[C@H](CN(C)C(=O)Nc2ccc3c(c2)OCO3)[C@H](C)CN([C@@H](C)CO)C(=O)c2cc(NC(=O)Cc3ccccc3)ccc2O1
42	·	·	·	·	·	10	·	COc1ccc(S(=O)(=O)Nc2ccc3c(c2)CC(=O)N([C@H](C)CO)C[C@H](C)[C@@H](CN(C)S(=O)(=O)c2c(C)noc2C)O3)cc1

Assay outcomes from PubChem BioAssay.
